Source: US20140017893A1, “CMP POLISHING LIQUID AND METHOD FOR POLISHING SUBSTRATE USING THE SAME” (Hitachi Chemical Company, Ltd., priority 2007, published 2014)

Test: Solubility of guanidine compounds in water, OECD Guideline 105 flask method

Guanidine carbonate
Solubility in water: 330 mM
